The target of this assay is yeast α-glucosidase (Saccharomyces cerevisiae, UniProt P53341). Nature of the assay: α-glucosidase enzyme inhibitory activity. The format is biochemical. The conditions noted are these: at 250 μg/mL, Fig. 6.

Chains of the proteins cited; added tags and fusions are not shown. Lines headed by an entry give the natural chain unless they say otherwise; changes in a name come on top.
UniProt P53341: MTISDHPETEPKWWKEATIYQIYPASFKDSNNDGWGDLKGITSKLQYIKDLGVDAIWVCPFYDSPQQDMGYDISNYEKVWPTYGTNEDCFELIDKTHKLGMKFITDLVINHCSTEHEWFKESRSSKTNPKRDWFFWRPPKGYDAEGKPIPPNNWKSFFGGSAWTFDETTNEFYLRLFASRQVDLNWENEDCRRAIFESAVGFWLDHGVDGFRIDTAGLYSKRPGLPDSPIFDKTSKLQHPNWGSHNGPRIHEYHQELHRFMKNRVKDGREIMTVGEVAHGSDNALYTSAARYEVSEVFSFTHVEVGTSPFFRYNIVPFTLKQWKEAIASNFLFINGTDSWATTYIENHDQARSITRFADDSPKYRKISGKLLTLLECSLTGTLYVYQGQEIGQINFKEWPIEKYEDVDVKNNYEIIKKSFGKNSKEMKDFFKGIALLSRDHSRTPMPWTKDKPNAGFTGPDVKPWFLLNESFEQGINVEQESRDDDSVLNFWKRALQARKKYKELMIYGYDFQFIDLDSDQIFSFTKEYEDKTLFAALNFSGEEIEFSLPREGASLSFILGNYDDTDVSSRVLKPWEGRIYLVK

SMILES strings stand for the structures.

`C[C@H]1O[C@H](O[C@H]2[C@H](O)[C@@H](O)[C@@H](O[C@H]3[C@H](O)[C@@H](O)C(O)O[C@@H]3CO)O[C@@H]2CO)[C@H](O)[C@@H](O)[C@@H]1N[C@H]1C=C(CO)[C@@H](O)[C@H](O)[C@H]1O` (stereo partly shown) [Acarbose, reference compound]: the α-glucosidase percentage inhibition result was “did not exhibit statistically significant differences”.

For the origin of these results see PMC10756989 (Heliyon, 2023).
